Assay results published in patent US20120094923A1, “METHODS AND MATERIALS FOR ASSESSING PROSTATE CANCER RECURRENCE AND REDUCING MESOTRYPSIN ACTIVITY” (priority 2010, published 2012).

These molecules were tested against T1, mesotrypsin (Homo sapiens, UniProt P35030) (assay: Competitive inhibition of mesotrypsin (cleavage of chromogenic substrate Z-GPR-pNA)). Settings: Ki (M).
T1 construct: made in house; host or cells: E. coli
T1 sequence (P35030 81-304 limits assumed): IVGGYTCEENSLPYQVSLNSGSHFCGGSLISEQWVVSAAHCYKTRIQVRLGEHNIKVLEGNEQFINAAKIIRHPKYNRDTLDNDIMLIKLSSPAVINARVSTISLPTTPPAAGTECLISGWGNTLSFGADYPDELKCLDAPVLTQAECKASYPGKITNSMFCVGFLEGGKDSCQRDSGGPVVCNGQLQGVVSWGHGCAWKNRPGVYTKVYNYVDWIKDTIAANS
Assay type: biochemical

Question: For `CC[C@H](C)[C@H](NC(=O)[C@H](C)NC(=O)[C@H](CO)NC(=O)CNC(=O)[C@@H]1CSSC[C@H](NC(=O)[C@@H](NC(=O)[C@@H](N)CCC(=O)O)C(C)C)C(=O)N[C@@H](CO)C(=O)N[C@@H](CCC(=O)O)C(=O)N[C@@H](CCC(N)=O)C(=O)N[C@@H](C)C(=O)N[C@@H](CCC(=O)O)C(=O)N[C@@H]([C@@H](C)O)C(=O)NCC(=O)N2CCC[C@H]2C(=O)N[C@H]2CSSC[C@@H]3NC(=O)CNC(=O)CNC(=O)[C@H](Cc4ccc(O)cc4)NC(=O)[C@H](Cc4ccccc4)NC(=O)[C@H](Cc4ccccc4)NC(=O)[C@@H]4CCCN4C(=O)[C@H](C)NC(=O)[C@H](CSSC[C@H](NC(=O)[C@H](Cc4ccc(O)cc4)NC(=O)[C@H](CCC(=O)O)NC(=O)[C@H](CCC(=O)O)NC(=O)[C@H]([C@@H](C)O)NC(=O)[C@H](CC(=O)O)NC(=O)CNC(=O)[C@H](CC(N)=O)NC(=O)[C@H](CC(N)=O)NC(=O)[C@H](CCCNC(=N)N)NC(=O)[C@H](CC(N)=O)NC(=O)CNC(=O)CNC3=O)C(=O)N[C@@H](CCSC)C(=O)N[C@@H](C)C(=O)N[C@@H](C(C)C)C(=O)N1)NC(=O)[C@H](CCCCN)NC(=O)CNC(=O)[C@H](CCC(=O)O)NC(=O)[C@H]([C@@H](C)O)NC(=O)[C@H](C(C)C)NC(=O)[C@H](CC(=O)O)NC(=O)[C@H](Cc1ccccc1)NC(=O)[C@H](Cc1ccc(O)cc1)NC(=O)[C@H](Cc1c[nH]c3ccccc13)NC(=O)[C@H](CCCNC(=N)N)NC(=O)[C@H](CO)NC(=O)[C@H]([C@@H](C)CC)NC(=O)[C@H](CCSC)NC(=O)[C@H](C)NC(=O)[C@H](CCCCN)NC2=O)C(=O)O` [APPI-R15K], which Ki is on record?
Answer: 3.5e-07 M

Question: `CC[C@H](C)[C@H](NC(=O)[C@H](C)NC(=O)[C@H](CO)NC(=O)CNC(=O)[C@@H]1CSSC[C@H](NC(=O)[C@@H](NC(=O)[C@@H](N)CCC(=O)O)C(C)C)C(=O)N[C@@H](CO)C(=O)N[C@@H](CCC(=O)O)C(=O)N[C@@H](CCC(N)=O)C(=O)N[C@@H](C)C(=O)N[C@@H](CCC(=O)O)C(=O)N[C@@H]([C@@H](C)O)C(=O)NCC(=O)N2CCC[C@H]2C(=O)N[C@H]2CSSC[C@@H]3NC(=O)CNC(=O)CNC(=O)[C@H](Cc4ccc(O)cc4)NC(=O)[C@H](Cc4ccccc4)NC(=O)[C@H](Cc4ccccc4)NC(=O)[C@@H]4CCCN4C(=O)[C@H](C)NC(=O)[C@H](CSSC[C@H](NC(=O)[C@H](Cc4ccc(O)cc4)NC(=O)[C@H](CCC(=O)O)NC(=O)[C@H](CCC(=O)O)NC(=O)[C@H]([C@@H](C)O)NC(=O)[C@H](CC(=O)O)NC(=O)CNC(=O)[C@H](CC(N)=O)NC(=O)[C@H](CC(N)=O)NC(=O)[C@H](CCCNC(=N)N)NC(=O)[C@H](CC(N)=O)NC(=O)CNC(=O)CNC3=O)C(=O)N[C@@H](CCSC)C(=O)N[C@@H](C)C(=O)N[C@@H](C(C)C)C(=O)N1)NC(=O)[C@H](CCCCN)NC(=O)CNC(=O)[C@H](CCC(=O)O)NC(=O)[C@H]([C@@H](C)O)NC(=O)[C@H](C(C)C)NC(=O)[C@H](CC(=O)O)NC(=O)[C@H](Cc1ccccc1)NC(=O)[C@H](Cc1ccc(O)cc1)NC(=O)[C@H](Cc1c[nH]c3ccccc13)NC(=O)[C@H](CCCNC(=N)N)NC(=O)[C@H](CO)NC(=O)[C@H]([C@@H](C)CC)NC(=O)[C@H](CCC(=O)O)NC(=O)[C@H](C)NC(=O)[C@H](CCCNC(=N)N)NC2=O)C(=O)O` [APPI-M17E] was tested. Which Ki did it give?
Answer: 3.08e-07 M

Question: How did the Ki turn out when `CC[C@H](C)[C@H](NC(=O)[C@H](C)NC(=O)[C@H](CO)NC(=O)CNC(=O)[C@@H]1CSSC[C@H](NC(=O)[C@@H](NC(=O)[C@@H](N)CCC(=O)O)C(C)C)C(=O)N[C@@H](CO)C(=O)N[C@@H](CCC(=O)O)C(=O)N[C@@H](CCC(N)=O)C(=O)N[C@@H](C)C(=O)N[C@@H](CCC(=O)O)C(=O)N[C@@H]([C@@H](C)O)C(=O)NCC(=O)N2CCC[C@H]2C(=O)N[C@H]2CSSC[C@@H]3NC(=O)CNC(=O)CNC(=O)[C@H](Cc4ccc(O)cc4)NC(=O)[C@H](Cc4ccccc4)NC(=O)[C@H](Cc4ccccc4)NC(=O)[C@@H]4CCCN4C(=O)[C@H](C)NC(=O)[C@H](CSSC[C@H](NC(=O)[C@H](Cc4ccc(O)cc4)NC(=O)[C@H](CCC(=O)O)NC(=O)[C@H](CCC(=O)O)NC(=O)[C@H]([C@@H](C)O)NC(=O)[C@H](CC(=O)O)NC(=O)CNC(=O)[C@H](CC(N)=O)NC(=O)[C@H](CC(N)=O)NC(=O)[C@H](CCCNC(=N)N)NC(=O)[C@H](CC(N)=O)NC(=O)CNC(=O)CNC3=O)C(=O)N[C@@H](CCSC)C(=O)N[C@@H](C)C(=O)N[C@@H](C(C)C)C(=O)N1)NC(=O)[C@H](CCCCN)NC(=O)CNC(=O)[C@H](CCC(=O)O)NC(=O)[C@H]([C@@H](C)O)NC(=O)[C@H](C(C)C)NC(=O)[C@H](CC(=O)O)NC(=O)[C@H](Cc1ccccc1)NC(=O)[C@H](Cc1ccc(O)cc1)NC(=O)[C@H](Cc1c[nH]c3ccccc13)NC(=O)[C@H](CCCNC(=N)N)NC(=O)[C@H](CO)NC(=O)[C@H]([C@@H](C)CC)NC(=O)[C@H](C)NC(=O)[C@H](C)NC(=O)[C@H](CCCNC(=N)N)NC2=O)C(=O)O` [APPI-M17A] was run?
Answer: 1.71e-08 M

Question: `CC[C@H](C)[C@H](NC(=O)[C@H](C)NC(=O)[C@H](CO)NC(=O)CNC(=O)[C@@H]1CSSC[C@H](NC(=O)[C@@H](NC(=O)[C@@H](N)CCC(=O)O)C(C)C)C(=O)N[C@@H](CO)C(=O)N[C@@H](CCC(=O)O)C(=O)N[C@@H](CCC(N)=O)C(=O)N[C@@H](C)C(=O)N[C@@H](CCC(=O)O)C(=O)N[C@@H]([C@@H](C)O)C(=O)NCC(=O)N2CCC[C@H]2C(=O)N[C@H]2CSSC[C@@H]3NC(=O)CNC(=O)CNC(=O)[C@H](Cc4ccc(O)cc4)NC(=O)[C@H](Cc4ccccc4)NC(=O)[C@H](Cc4ccccc4)NC(=O)[C@@H]4CCCN4C(=O)[C@H](C)NC(=O)[C@H](CSSC[C@H](NC(=O)[C@H](Cc4ccc(O)cc4)NC(=O)[C@H](CCC(=O)O)NC(=O)[C@H](CCC(=O)O)NC(=O)[C@H]([C@@H](C)O)NC(=O)[C@H](CC(=O)O)NC(=O)CNC(=O)[C@H](CC(N)=O)NC(=O)[C@H](CC(N)=O)NC(=O)[C@H](CCCNC(=N)N)NC(=O)[C@H](CC(N)=O)NC(=O)CNC(=O)CNC3=O)C(=O)N[C@@H](CCSC)C(=O)N[C@@H](C)C(=O)N[C@@H](C(C)C)C(=O)N1)NC(=O)[C@H](CCCCN)NC(=O)CNC(=O)[C@H](CCC(=O)O)NC(=O)[C@H]([C@@H](C)O)NC(=O)[C@H](C(C)C)NC(=O)[C@H](CC(=O)O)NC(=O)[C@H](Cc1ccccc1)NC(=O)[C@H](Cc1ccc(O)cc1)NC(=O)[C@H](Cc1c[nH]c3ccccc13)NC(=O)[C@H](CCCNC(=N)N)NC(=O)[C@H](CO)NC(=O)[C@H]([C@@H](C)CC)NC(=O)[C@H](Cc1ccc(O)cc1)NC(=O)[C@H](C)NC(=O)[C@H](CCCNC(=N)N)NC2=O)C(=O)O` [APPI-M17Y] was tested. Which Ki did it give?
Answer: 5.33e-08 M

Question: With `CC[C@H](C)[C@H](NC(=O)[C@H](C)NC(=O)[C@H](CO)NC(=O)CNC(=O)[C@@H]1CSSC[C@H](NC(=O)[C@@H](NC(=O)[C@@H](N)CCC(=O)O)C(C)C)C(=O)N[C@@H](CO)C(=O)N[C@@H](CCC(=O)O)C(=O)N[C@@H](CCC(N)=O)C(=O)N[C@@H](C)C(=O)N[C@@H](CCC(=O)O)C(=O)N[C@@H]([C@@H](C)O)C(=O)NCC(=O)N2CCC[C@H]2C(=O)N[C@H]2CSSC[C@@H]3NC(=O)CNC(=O)CNC(=O)[C@H](Cc4ccc(O)cc4)NC(=O)[C@H](Cc4ccccc4)NC(=O)[C@H](Cc4ccccc4)NC(=O)[C@@H]4CCCN4C(=O)[C@H](C)NC(=O)[C@H](CSSC[C@H](NC(=O)[C@H](Cc4ccc(O)cc4)NC(=O)[C@H](CCC(=O)O)NC(=O)[C@H](CCC(=O)O)NC(=O)[C@H]([C@@H](C)O)NC(=O)[C@H](CC(=O)O)NC(=O)CNC(=O)[C@H](CC(N)=O)NC(=O)[C@H](CC(N)=O)NC(=O)[C@H](CCCNC(=N)N)NC(=O)[C@H](CC(N)=O)NC(=O)CNC(=O)CNC3=O)C(=O)N[C@@H](CCSC)C(=O)N[C@@H](C)C(=O)N[C@@H](C(C)C)C(=O)N1)NC(=O)[C@H](CCCCN)NC(=O)CNC(=O)[C@H](CCC(=O)O)NC(=O)[C@H]([C@@H](C)O)NC(=O)[C@H](C(C)C)NC(=O)[C@H](CC(=O)O)NC(=O)[C@H](Cc1ccccc1)NC(=O)[C@H](Cc1ccc(O)cc1)NC(=O)[C@H](Cc1c[nH]c3ccccc13)NC(=O)[C@H](CCCNC(=N)N)NC(=O)[C@H](CO)NC(=O)[C@H]([C@@H](C)CC)NC(=O)[C@H](CCSC)NC(=O)[C@H](C)NC(=O)[C@H](CCCNC(=N)N)NC2=O)C(=O)O` [APPI-wt, Alzheimer's amyloid-protein precursor inhibitor, reference compound] as the molecule, how does the Ki read?
Answer: 1.36e-07 M

Same assay, conditions: Ki ± SD (M)

Question: How did the Ki turn out when `CC[C@H](C)[C@H](NC(=O)[C@H](C)NC(=O)[C@H](CO)NC(=O)CNC(=O)[C@@H]1CSSC[C@H](NC(=O)[C@@H](NC(=O)[C@@H](N)CCC(=O)O)C(C)C)C(=O)N[C@@H](CO)C(=O)N[C@@H](CCC(=O)O)C(=O)N[C@@H](CCC(N)=O)C(=O)N[C@@H](C)C(=O)N[C@@H](CCC(=O)O)C(=O)N[C@@H]([C@@H](C)O)C(=O)NCC(=O)N2CCC[C@H]2C(=O)N[C@H]2CSSC[C@@H]3NC(=O)CNC(=O)CNC(=O)[C@H](Cc4ccc(O)cc4)NC(=O)[C@H](Cc4ccccc4)NC(=O)[C@H](Cc4ccccc4)NC(=O)[C@@H]4CCCN4C(=O)[C@H](C)NC(=O)[C@H](CSSC[C@H](NC(=O)[C@H](Cc4ccc(O)cc4)NC(=O)[C@H](CCC(=O)O)NC(=O)[C@H](CCC(=O)O)NC(=O)[C@H]([C@@H](C)O)NC(=O)[C@H](CC(=O)O)NC(=O)CNC(=O)[C@H](CC(N)=O)NC(=O)[C@H](CC(N)=O)NC(=O)[C@H](CCCNC(=N)N)NC(=O)[C@H](CC(N)=O)NC(=O)CNC(=O)CNC3=O)C(=O)N[C@@H](CCSC)C(=O)N[C@@H](C)C(=O)N[C@@H](C(C)C)C(=O)N1)NC(=O)[C@H](CCCCN)NC(=O)CNC(=O)[C@H](CCC(=O)O)NC(=O)[C@H]([C@@H](C)O)NC(=O)[C@H](C(C)C)NC(=O)[C@H](CC(=O)O)NC(=O)[C@H](Cc1ccccc1)NC(=O)[C@H](Cc1ccc(O)cc1)NC(=O)[C@H](Cc1c[nH]c3ccccc13)NC(=O)[C@H](CCCNC(=N)N)NC(=O)[C@H](CO)NC(=O)[C@H]([C@@H](C)CC)NC(=O)[C@H](CC(=O)O)NC(=O)[C@H](C)NC(=O)[C@H](CCCNC(=N)N)NC2=O)C(=O)O` [APPI-M17D] was run?
Answer: 3.46e-07 M
